Earlier results, collected in patent US4096052A, “Electrochemical hydroxylation of certain aromatic compounds” (priority 1977, dated 1978).

Settings: Table II (comparison acids), H2O

Ka (H2 O) at 25° C: 1.76 × 10^-5
SMILES: CC(=O)O [acetic, acetic acid]
